According to patent publication US20260382772A1, “KETO-AMIDE-BASED FIBROBLAST ACTIVATION PROTEIN-TARGETED LIGAND LINKED TO AN IMAGING OR THERAPEUTIC AGENT, COMPOSITIONS, AND METHODS OF USE” (published 2026):

System: 4T1 tumor bearing mice
Assay: Biodistribution of ^177Lu-FAP8-PEG3-IP-DOTA in 4T1 tumor bearing mice
Source text: Balb/c mice were inoculated on their shoulders with 1×10^5 cells of 4T1 cells, whereas nu/nu mice were inoculated on their shoulders with 5×10^6 cells of HT29 (a human colorectal adenocarcinoma cell line), KB (tumor cell line HeLa), MDA-MB-231 (a human breast cancer cell line), or HEK-FAP cells.
For the first study, two different tumor-bearing mice (4T1 and HEK-hFAP) were intravenously injected with [^111In] In-FAP8-PEG3-IP-DOTA (In-Conjugate 24′) (0.74 MBq/mouse, 1-10 nmol/mouse) or [^177Lu] Lu-FAP8-PEG3-IP-DOTA (Lu-Conjugate 24′) (7.4 MBq/mouse, 0.3 nmol-5 nmol/mouse).
At indicated time points (1 hour, 4 hours, 24 hours, 72 hours, 120 hours, and 168 hours post-injection), mice were assessed and/or euthanized by CO2 asphyxiation and organs of interest were harvested, excess blood was rinsed, dried, weighed, and then analyzed by gamma counter, and the results were decay corrected and presented as the percentage of the injected dose per gram of tissue (% ID/g)±standard deviation (SD).
Dose escalation analyses of [^177Lu] Lu-FAP8-PEG3-IP-DOTA (Lu-Conjugate 24′) in 4T1 tumor-bearing mice was performed (n=3) with 0.3 nmol/mouse (FIG. 45A) or 1.0 nmol/mouse (FIG. 45B) of Lu-Conjugate 24′ provided with constant radioactivity (0.74 MBq/mouse) and measured at different times (1 hour, 4 hours, 24 hours, 72 hours, 120 hours, and 168 hours post-injection).

In the case of COc1ccc(CNC(=O)C(=O)[C@@H]2CC(F)(F)CN2C(=O)CNC(=O)c2ccnc3ccc(OCC(=O)NCCOCCOCCOCCNC(=O)[C@H](CCCCNC(=O)CCCc4ccc(I)cc4)NC(=O)CN4CCN(CC(=O)O)CCN(CC(=O)O)CCN(CC(=O)O)CC4)cc23)cc1OC.[Lu+3], the Blood uptake (0.3 nmol/mouse, 1 h) is reported as 25.42 ± 3.72 % ID/g, the Bone marrow uptake (0.3 nmol/mouse, 1 h) is reported as 6.70 ± 4.92 % ID/g and the Heart uptake (0.3 nmol/mouse, 1 h) is reported as 5.03 ± 3.16 % ID/g. For the same compound, the Intestine uptake (0.3 nmol/mouse, 1 h) was 1.92 ± 0.411 % ID/g, the Kidneys uptake (0.3 nmol/mouse, 1 h) was 4.86 ± 3.29 % ID/g and the Liver uptake (0.3 nmol/mouse, 1 h) was 7.05 ± 2.01 % ID/g. It also gave a Lungs uptake (0.3 nmol/mouse, 1 h) of 5.73 ± 1.54 % ID/g, a Spleen uptake (0.3 nmol/mouse, 1 h) of 4.12 ± 1.79 % ID/g and a Stomach uptake (0.3 nmol/mouse, 1 h) of 1.50 ± 0.78 % ID/g. For the same compound, the Tumor uptake (0.3 nmol/mouse, 1 h) was 5.79 ± 3.38 % ID/g, the Tumor/Blood (0.3 nmol/mouse, 1 h) was 0.17 ± 0.06 and the Tumor/Bone marrow (0.3 nmol/mouse, 1 h) was 1.08 ± 0.77. The Tumor/Kidneys (0.3 nmol/mouse, 1 h) was 1.19 ± 0.23, the Blood uptake (0.3 nmol/mouse, 4 h) was 10.35 ± 4.64 % ID/g and the Bone marrow uptake (0.3 nmol/mouse, 4 h) was 4.32 ± 2.99 % ID/g. The Heart uptake (0.3 nmol/mouse, 4 h) was 2.72 ± 1.53 % ID/g, the Intestine uptake (0.3 nmol/mouse, 4 h) was 1.26 ± 0.64 % ID/g and the Kidneys uptake (0.3 nmol/mouse, 4 h) was 3.48 ± 2.54 % ID/g. The Liver uptake (0.3 nmol/mouse, 4 h) was 5.79 ± 0.12 % ID/g, the Lungs uptake (0.3 nmol/mouse, 4 h) was 4.96 ± 3.24 % ID/g and the Spleen uptake (0.3 nmol/mouse, 4 h) was 3.48 ± 1.64 % ID/g. For the same compound, the Stomach uptake (0.3 nmol/mouse, 4 h) was 0.73 ± 0.09 % ID/g, the Tumor uptake (0.3 nmol/mouse, 4 h) was 5.24 ± 1.91 % ID/g and the Tumor/Blood (0.3 nmol/mouse, 4 h) was 0.53 ± 0.31. The Tumor/Bone marrow (0.3 nmol/mouse, 4 h) was 1.25 ± 0.85, the Tumor/Kidneys (0.3 nmol/mouse, 4 h) was 1.02 ± 0.23 and the Blood uptake (0.3 nmol/mouse, 24 h) was 4.28 ± 1.46 % ID/g. It also gave a Bone marrow uptake (0.3 nmol/mouse, 24 h) of 1.49 ± 1.4 % ID/g, a Heart uptake (0.3 nmol/mouse, 24 h) of 1.63 ± 1.02 % ID/g and an Intestine uptake (0.3 nmol/mouse, 24 h) of 0.65 ± 0.15 % ID/g. The Kidneys uptake (0.3 nmol/mouse, 24 h) was 2.09 ± 2.44 % ID/g, the Liver uptake (0.3 nmol/mouse, 24 h) was 5.88 ± 2.38 % ID/g and the Lungs uptake (0.3 nmol/mouse, 24 h) was 2.12 ± 0.76 % ID/g. It also gave a Spleen uptake (0.3 nmol/mouse, 24 h) of 2.07 ± 1.11 % ID/g, a Stomach uptake (0.3 nmol/mouse, 24 h) of 0.91 ± 0.25 % ID/g and a Tumor uptake (0.3 nmol/mouse, 24 h) of 5.94 ± 2.18 % ID/g. The Tumor/Blood (0.3 nmol/mouse, 24 h) was 1.35 ± 1.45, the Blood uptake (0.3 nmol/mouse, 72 h) was 1.48 ± 0.12 % ID/g and the Bone marrow uptake (0.3 nmol/mouse, 72 h) was 1.20 ± 2.08 % ID/g. For the same compound, the Heart uptake (0.3 nmol/mouse, 72 h) was 2.08 ± 0.28 % ID/g, the Intestine uptake (0.3 nmol/mouse, 72 h) was 0.88 ± 0.27 % ID/g and the Kidneys uptake (0.3 nmol/mouse, 72 h) was 1.52 ± 0.59 % ID/g. It also gave a Liver uptake (0.3 nmol/mouse, 72 h) of 6.39 ± 2.65 % ID/g, a Lungs uptake (0.3 nmol/mouse, 72 h) of 2.30 ± 1.00 % ID/g and a Spleen uptake (0.3 nmol/mouse, 72 h) of 2.85 ± 1.28 % ID/g. It also gave a Stomach uptake (0.3 nmol/mouse, 72 h) of 0.67 ± 0.135 % ID/g, a Tumor uptake (0.3 nmol/mouse, 72 h) of 5.12 ± 1.34 % ID/g and a Tumor/Blood (0.3 nmol/mouse, 72 h) of 3.41 ± 0.55. For the same compound, the Tumor/Bone marrow (0.3 nmol/mouse, 72 h) was 1.69 ± 0.0, the Tumor/Kidneys (0.3 nmol/mouse, 72 h) was 4.09 ± 2.30 and the Bone marrow uptake (0.3 nmol/mouse, 120 h) was 0.85 ± 5.57 % ID/g. It also gave a Heart uptake (0.3 nmol/mouse, 120 h) of 1.07 ± 0.30 % ID/g, an Intestine uptake (0.3 nmol/mouse, 120 h) of 0.68 ± 0.37 % ID/g and a Kidneys uptake (0.3 nmol/mouse, 120 h) of 2.12 ± 0.88 % ID/g. It also gave a Liver uptake (0.3 nmol/mouse, 120 h) of 3.62 ± 1.59 % ID/g, a Lungs uptake (0.3 nmol/mouse, 120 h) of 1.53 ± 1.52 % ID/g and a Spleen uptake (0.3 nmol/mouse, 120 h) of 2.22 ± 0.28 % ID/g. For the same compound, the Stomach uptake (0.3 nmol/mouse, 120 h) was 0.54 ± 0.22 % ID/g, the Tumor uptake (0.3 nmol/mouse, 120 h) was 3.32 ± 2.49 % ID/g and the Tumor/Blood (0.3 nmol/mouse, 120 h) was 3.99 ± 2.45. The Tumor/Bone marrow (0.3 nmol/mouse, 120 h) was 3.03 ± 1.91, the Tumor/Kidneys (0.3 nmol/mouse, 120 h) was 1.62 ± 0.63 and the Blood uptake (0.3 nmol/mouse, 168 h) was 0.4 ± 0.1 % ID/g. For the same compound, the Bone marrow uptake (0.3 nmol/mouse, 168 h) was 1.76 ± 1.72 % ID/g, the Heart uptake (0.3 nmol/mouse, 168 h) was 0.8 ± 0.5 % ID/g and the Intestine uptake (0.3 nmol/mouse, 168 h) was 0.6 ± 0.2 % ID/g. For the same compound, the Kidneys uptake (0.3 nmol/mouse, 168 h) was 1.33 ± 1.02 % ID/g, the Liver uptake (0.3 nmol/mouse, 168 h) was 4.93 ± 0.49 % ID/g and the Lungs uptake (0.3 nmol/mouse, 168 h) was 0.5 ± 0.2 % ID/g. For the same compound, the Spleen uptake (0.3 nmol/mouse, 168 h) was 3.13 ± 0.98 % ID/g, the Stomach uptake (0.3 nmol/mouse, 168 h) was 0.46 ± 0.05 % ID/g and the Tumor uptake (0.3 nmol/mouse, 168 h) was 3.43 ± 0.98 % ID/g. It also gave a Tumor/Blood (0.3 nmol/mouse, 168 h) of 8.4 ± 0.94, a Tumor/Bone marrow (0.3 nmol/mouse, 168 h) of 4.77 ± 4.55 and a Tumor/Kidneys (0.3 nmol/mouse, 168 h) of 3.55 ± 2.09. For the same compound, the Blood uptake (1.0 nmol/mouse, 1 h) was 16.3 ± 6.47 % ID/g, the Bone marrow uptake (1.0 nmol/mouse, 1 h) was 1.46 ± 1.05 % ID/g and the Heart uptake (1.0 nmol/mouse, 1 h) was 2.00 ± 1.08 % ID/g. The Intestine uptake (1.0 nmol/mouse, 1 h) was 1.67 ± 1.53 % ID/g, the Kidneys uptake (1.0 nmol/mouse, 1 h) was 3.51 ± 0.22 % ID/g and the Liver uptake (1.0 nmol/mouse, 1 h) was 5.23 ± 0.52 % ID/g. The Lungs uptake (1.0 nmol/mouse, 1 h) was 1.97 ± 1.67 % ID/g, the Spleen uptake (1.0 nmol/mouse, 1 h) was 2.66 ± 0.69 % ID/g and the Stomach uptake (1.0 nmol/mouse, 1 h) was 1.13 ± 0.77 % ID/g. For the same compound, the Tumor uptake (1.0 nmol/mouse, 1 h) was 4.59 ± 1.59 % ID/g, the Tumor/Blood (1.0 nmol/mouse, 1 h) was 0.22 ± 0.06 and the Tumor/Bone marrow (1.0 nmol/mouse, 1 h) was 7.53 ± 8.14. It also gave a Tumor/Kidneys (1.0 nmol/mouse, 1 h) of 1.15 ± 0.40, a Blood uptake (1.0 nmol/mouse, 4 h) of 10.16 ± 8.11 % ID/g and a Bone marrow uptake (1.0 nmol/mouse, 4 h) of 0.63 ± 0.44 % ID/g. It also gave a Heart uptake (1.0 nmol/mouse, 4 h) of 1.89 ± 0.31 % ID/g, an Intestine uptake (1.0 nmol/mouse, 4 h) of 1.51 ± 1.15 % ID/g and a Kidneys uptake (1.0 nmol/mouse, 4 h) of 7.89 ± 1.58 % ID/g. For the same compound, the Liver uptake (1.0 nmol/mouse, 4 h) was 5 ± 1.00 % ID/g, the Lungs uptake (1.0 nmol/mouse, 4 h) was 3.16 ± 2.58 % ID/g and the Spleen uptake (1.0 nmol/mouse, 4 h) was 2.28 ± 0.71 % ID/g. The Stomach uptake (1.0 nmol/mouse, 4 h) was 0.95 ± 0.47 % ID/g, the Tumor uptake (1.0 nmol/mouse, 4 h) was 9.19 ± 4.39 % ID/g and the Tumor/Blood (1.0 nmol/mouse, 4 h) was 0.93 ± 0.14. The Tumor/Bone marrow (1.0 nmol/mouse, 4 h) was 15.60 ± 3.49, the Tumor/Kidneys (1.0 nmol/mouse, 4 h) was 1.49 ± 0.14 and the Blood uptake (1.0 nmol/mouse, 24 h) was 4.66 ± 1.32 % ID/g. For the same compound, the Bone marrow uptake (1.0 nmol/mouse, 24 h) was 2.26 ± 1.06 % ID/g, the Heart uptake (1.0 nmol/mouse, 24 h) was 1.04 ± 0.32 % ID/g and the Intestine uptake (1.0 nmol/mouse, 24 h) was 0.89 ± 0.37 % ID/g. It also gave a Kidneys uptake (1.0 nmol/mouse, 24 h) of 4.4 ± 0.79 % ID/g, a Liver uptake (1.0 nmol/mouse, 24 h) of 4.6 ± 1.40 % ID/g and a Lungs uptake (1.0 nmol/mouse, 24 h) of 0.92 ± 0.52 % ID/g. The Spleen uptake (1.0 nmol/mouse, 24 h) was 1.93 ± 0.09 % ID/g, the Stomach uptake (1.0 nmol/mouse, 24 h) was 0.51 ± 0.101 % ID/g and the Tumor uptake (1.0 nmol/mouse, 24 h) was 6.93 ± 1.10 % ID/g. It also gave a Tumor/Blood (1.0 nmol/mouse, 24 h) of 1.15 ± 0.04, a Tumor/Bone marrow (1.0 nmol/mouse, 24 h) of 2.27 ± 0.10 and a Tumor/Kidneys (1.0 nmol/mouse, 24 h) of 1.38 ± 0.33. For the same compound, the Blood uptake (1.0 nmol/mouse, 72 h) was 1.48 ± 0.06 % ID/g.
